The experiment concerns the target T1, hCRFR1α (Homo sapiens, UniProt P34998).
T1 construct: The cDNAs encoding full-length mature forms of hCRFR1α and mCRFR2β were introduced into pET-26b plasmid; made in house; host or cells: E. coli (membrane fraction)
T1 sequence (P34998 24-415): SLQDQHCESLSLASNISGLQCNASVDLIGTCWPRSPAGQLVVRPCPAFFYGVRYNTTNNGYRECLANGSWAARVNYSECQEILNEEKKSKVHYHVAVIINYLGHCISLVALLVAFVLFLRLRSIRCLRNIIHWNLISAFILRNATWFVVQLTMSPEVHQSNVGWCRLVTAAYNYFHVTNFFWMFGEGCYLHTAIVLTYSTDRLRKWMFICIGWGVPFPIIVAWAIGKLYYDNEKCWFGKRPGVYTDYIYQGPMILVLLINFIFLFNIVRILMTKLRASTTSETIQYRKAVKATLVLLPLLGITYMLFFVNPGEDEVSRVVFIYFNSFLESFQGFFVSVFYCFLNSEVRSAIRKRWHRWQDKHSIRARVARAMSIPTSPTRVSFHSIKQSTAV
Nature of the experiment: Competitive displacement of labeled astressin, hCRFR1α in E. coli membranes. As to conditions: read-out: Inhibitory binding constant (Ki). How it is done: The incubation was performed at room temp for 90-120 min, at which time the plates were aspirated and each well was washed with 2×100 μl assay buffer, dried and counted in a γ-counter. Each assay included at least triplicate wells for each concentration, and the assays were repeated at least twice (except where indicated). […] The saturation and competitive binding experiments are analyzed by non-linear regression with the GraphPad Prism program (www.graphpad.com) assuming binding to a single site. Specifically, for saturation binding experiments, binding is determined as a function of increasing concentrations of radioligand. The equation used is y = {(Bmax)^.[radioligand]}/{Kd+[radioligand]}, where y = the specific binding (i.e., total binding-non-specific binding). Competitive binding experiments use a constant concentration of radioligand together with increasing concentrations of competitor. […] Because [radioligand] is <Kd, the Ki = EC50. For multiple determinations, Log (EC50) values were averaged to calculate the values in Table 1. […] In Table 1, the inhibition constant (Ki) values are shown together with the standard error and ranges, calculated assuming log normal distribution.

With `CC[C@H](C)[C@H](NC(=O)[C@H](CO)NC(=O)[C@H](CC(C)C)NC(=O)[C@@H]1CCCN1C(=O)[C@@H]1CCCN1C(=O)[C@H](CC(=O)O)NC(=O)[C@@H](N)CC(=O)O)C(=O)N[C@@H](CC(=O)O)C(=O)N[C@@H](CC(C)C)C(=O)N[C@H](C(=O)N[C@@H](Cc1ccccc1)C(=O)N[C@@H](Cc1c[nH]cn1)C(=O)N[C@@H](CC(C)C)C(=O)N[C@@H](CC(C)C)C(=O)N[C@@H](CCCNC(=N)N)C(=O)N[C@H](C(=O)N[C@@H](CC(C)C)C(=O)N[C@@H](CC(C)C)C(=O)N[C@@H](CCC(=O)O)C(=O)N[C@@H](CC(C)C)C(=O)N[C@@H](C)C(=O)N[C@@H](CCCNC(=N)N)C(=O)N[C@H](C(=O)N[C@@H](CCC(N)=O)C(=O)N[C@@H](CO)C(=O)N[C@@H](CCC(N)=O)C(=O)N[C@@H](CCCNC(=N)N)C(=O)N[C@@H](CCC(=O)O)C(=O)N[C@@H](CCCNC(=N)N)C(=O)N[C@@H](C)C(=O)N[C@@H](CCC(=O)O)C(=O)N[C@@H](CCC(N)=O)C(=O)N[C@@H](CC(N)=O)C(=O)N[C@@H](CCCNC(=N)N)C(=O)N[C@H](C(=O)N[C@H](C(=O)N[C@@H](Cc1ccccc1)C(=O)N[C@@H](CC(=O)O)C(=O)N[C@@H](CO)C(=O)N[C@H](C(N)=O)C(C)C)[C@@H](C)CC)[C@@H](C)CC)[C@@H](C)O)[C@@H](C)O)[C@@H](C)O` [rUcn1], the inhibition constant (Ki) is 98 nM.
